{"source": "patent US20200009275A1", "about": "“PIGMENT-COUPLED MANNOSYL SERUM ALBUMIN COMPLEX AND LYMPH NODE-PROBING COMPOSITION COMPRISING SAME” (priority 2017, published 2020)", "experiment": "Absorption peak and molecular extinction coefficient of pigment-coupled MSA", "type": "physicochemical", "procedure": "The pigment-coupled MSA solution was loaded in a 96-well plate, which was scanned with visible light ranging between 350 nm and 850 nm to measure the absorbance at the peak of absorption spectrum using Varioskan Flash (Thermo Fisher Scientific Inc., Finland) spectrometer. The molecular extinction coefficient was measured by calculating the absorbance per 1 cm length according to Beer-Lambert law.", "data": [{"substance": "brilliant blue R", "values": [{"measurement": "ε (molecular extinction coefficient)", "setting": "at absorption peak, per 1 cm, Beer-Lambert law", "result": 54444}, {"measurement": "Wavelength (absorption peak)", "setting": "scan 350 nm to 850 nm", "result": 590, "unit": "nm"}]}]}
